# From patent US5500428A (dated 1996)
# Amino acid sequences for entries named in this document (tags omitted).
# UniProt P47745, whole entry: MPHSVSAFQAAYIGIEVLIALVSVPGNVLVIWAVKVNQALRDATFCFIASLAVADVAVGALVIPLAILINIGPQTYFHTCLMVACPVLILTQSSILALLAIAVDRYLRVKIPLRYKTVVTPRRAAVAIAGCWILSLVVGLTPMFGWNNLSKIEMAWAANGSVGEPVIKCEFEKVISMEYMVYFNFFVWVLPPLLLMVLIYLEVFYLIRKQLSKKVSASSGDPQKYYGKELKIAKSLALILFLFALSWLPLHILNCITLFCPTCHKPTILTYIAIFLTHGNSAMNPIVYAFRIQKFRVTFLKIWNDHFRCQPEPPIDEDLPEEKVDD
# Target: adenosine receptor known as A1 (Cavia porcellus, UniProt P47745)
smiles,measurement,value
"Cn1c(=O)c2[nH]cnc2n(C)c1=O [1,3-dimethylxanthine]",Kb,~10 µM
